This is an account of results in patent US20260232826A1, “ANTIBODY-DRUG CONJUGATES AND THEIR USES” (Mablink Bioscience, priority 2022, published 2026).

The chains behind the UniProt entries cited, without tags or fusion partners. Residues count along the entry.
UniProt P15328, 25-234: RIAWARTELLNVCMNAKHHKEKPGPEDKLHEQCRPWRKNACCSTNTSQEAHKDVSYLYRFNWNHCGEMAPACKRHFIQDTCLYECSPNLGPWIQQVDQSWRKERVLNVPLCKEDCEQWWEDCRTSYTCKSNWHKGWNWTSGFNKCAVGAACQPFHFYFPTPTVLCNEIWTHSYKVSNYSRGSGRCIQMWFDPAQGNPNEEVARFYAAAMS

Series [1] addresses T1, extracellular human FRα expressed on cancerous cell lines (Homo sapiens, UniProt P15328).
T1 construct: endogenous in cells; host or cells: human cancer cell lines (ATCC/DSMZ/ECACC); BT-474 as FRα-negative control
As to the kind of experiment: Cell-binding affinity by flow cytometry. The conditions noted are these: APC-labelled antibody or ADC, flow cytometry (FIG. 6). As for the experimental part:
(§1) Antibody or ADC binding to extracellular human FRα expressed on cancerous cell lines is assessed by flow cytometry. Tested antibody or ADC is conjugated to APC fluorophore using LYNX Rapid APC Antibody Conjugation Kit according to the manufacturer's protocol (Bio-Rad, Cat #LNK032APC). Into 500000 cells (suspended in 100 μL of PBS in flow cytometry plastic tubes) is added 5 μL of a 10 μg/mL solution of tested APC-labelled antibody or ADC. Cells are incubated 20 min in the dark, are washed with PBS 3 times by centrifugation and are re-suspended in 200 μL of PBS for analysis. Flow cytometry is performed using a BD Fortessa flow cytometer controlled by BD FACSDiva software (BD Biosciences) and data are analyzed using FlowJo software (BD Bioscience).
as §1, with “lines was” for “lines is”, “ADC was” for “ADC is”, “tubes) was” for “tubes) is”, “ADC. […]” for “ADC. Cells are incubated 20 min in the dark, are washed with PBS 3 times by centrifugation and are re-suspended in 200 μL of PBS for analysis.”, “cytometry was” for “cytometry is”, “data were” for “data are”
(Flow cytometry measures light scatter and fluorescence of single cells or particles in a stream.)

Series [2] concerns recombinant cynomolgus FRα protein. As to the kind of experiment: Recombinant FRα-binding by ELISA (cynomolgus). Conditions: FIG. 4B. As for the experimental part: (§2) Sandwich ELISA assays were performed using 96-well high-binding ELISA plates (Corning Inc., New York, NY, USA, Cat #3590). Plates were coated using 100 μL/well of recombinant human FRα protein (Sino Biological cat #11241-H08H); recombinant cynomolgus FRα protein (Sino Biological cat #90950-C08H); recombinant rat FRα protein (Sino Biological cat #81073-R08H) or recombinant mouse FRα protein (Sino Biological cat #50573-M08H) in PBS (pH 7.4) at 2 μg/mL and incubated overnight at 4° C. After 2 washes with PBS-T (PBS+0.05% Tween-20), the plates were blocked with 200 μL/well of incubation buffer (PBS-T+0.1% BSA) for 1 h at room temperature. The plates were washed 4 times with PBS-T, and 100 μL of a threefold dilution series of tested compound (antibody or antibody-drug conjugate) was added. Then, the plates were incubated for 2 h at room temperature in the dark. After 5 washes with PBS-T, plates were incubated 1 h at room temperature with 100 μL/well of a goat anti-human IgG (H+L) HRP conjugated antibody (Jackson Immunoresearch cat #109-035-088), previously diluted 1:250000 in incubation buffer. After 5 washes with PBS-T, TMB substrate solution (Thermo-Fisher cat #N301) was added. Peroxidase activity was stopped with 0.18M H2SO4 and absorbance was read at 450 nm (reference wavelength 650 nm) using a Thermo Scientific MultiSkan EX microplate reader. […]
On the technique in general: In an ELISA, binding on a coated surface is turned into a signal by an enzyme label.

The test system of series [3] is recombinant rat FRα protein. The series can be described thus: Recombinant FRα-binding by ELISA (rat). Conditions: FIG. 4B. The protocol: as §2
Series [4] in a line: Pulmonary inflammatory and toxicity evaluation in mice. The arrangement: species or system C57/BL6 mice. Conditions: mouse, in vivo. An excerpt: Bleomycin has been widely used in rodents to model pulmonary fibrosis for the study of mechanisms involved in fibrogenesis and for evaluation of potential therapies. To assess ADC pulmonary toxicity, bleomycin-induced pulmonary fibrosis was induced in mice following known procedures as described by Walter and Kleeberger, Mouse Models of Bleomycin-Induced Pulmonary Fibrosis, 2008, Curr. Protoc. Pharmacol. 40:5.46.1-5.46.17. At day 0, 4 and 8, female C57/BL6 mice (Janvier Labs, Le Genest-Saint-Isle, France) were lightly anesthetized with isoflurane and intranasally administered with 20 μL of 1 mg/kg bleomycin PBS solution (Bleomycine Bellon, 15 mg for injection) or PBS (negative control mice). Non-bleomycin-conditioned mice were included as a negative control group. At day 11, mice (n=6 animals per group) were treated with tested conjugates (10 mg/kg i.p.) and were monitored for apparent signs of toxicity and weight loss during the duration of the experiment. […] At day 25 all mice were sacrificed, broncho-alveolar supernatant was obtained (by broncho-alveolar lavage) and lungs organs were harvested, weighted, and fixed in 0.1% (w/v) formaldehyde in PBS. After fixation, lungs were rinsed with a 0.02% (w/v) sodium azide in PBS solution and embedded in paraffin for histological staining. Slides were stained with anti-CD45 antibody (Abcam cat #ab10558, 1:500) to quantify level of leucocyte infiltration in the lungs. Secondary biotinylated goat anti-rabbit antibody (Vector Laboratories cat #BA-1000, 1:300) and Avidin-HRP (Vector Laboratories cat #A-2004) were used for detection. Histological experiments and imaging were outsourced at the Centre d'Imagerie Quantitative Lyon-Est (CiQLE) platform (Lyon, France). Random sections of IHC images (30% zoomed) were processed using native functionalities of the Fiji software (developed and maintained by the Laboratory for Optical and Computational Instrumentation of the University of Wisconsin-Madison, USA) to count CD45 positive cells within slides (1 slide per lung) and assess level of leucocyte infiltration. Monitoring of total counts of lymphocytes (CD3/CD4), eosinophils (CCR3/SiglecF), neutrophils (Ly6g/Ly6C) and macrophages (F4/80) in broncho-alveolar supernatants obtained from non-bleomycin-conditioned mice was done by flow cytometry. Inflammatory cytokines levels in broncho-alveolar supernatants obtained from non-bleomycin-conditioned mice were quantified by ELISA. IL-2, IL-4, IL-5, IL-6, IL-9, IL-10, IL-13 were quantified using Bio-Plex Pro™ Mouse Cytokine Th2 Panel (Bio-Rad cat #L60000UKVT), following manufacturer's instructions. TGF-β and IL-17 were quantified using Mouse TGF-beta 1 DuoSet and Mouse IL-17 DuoSet ELISA kits respectively (R&D systems cat #DY1679 and DY421), following manufacturer's instructions.
Statistical significance was evaluated using one-way ANOVA (Tukey method) using GraphPad Prism 9 software. p-values are represented as * (p<0.033), ** (p<0.002), *** (p<0.0002), and **** (p<0.0001) and “ns” stands for non-significant (p>0.123).

The conditions of series [5]: mouse, in vivo.

B1: M-SORAV (conjugate)
heavy: QVQLVQSGAEVVKPGASVKISCKASGYTFTGYFMNWVKQSPGQSLEWIGRIHPYDGDTFYNQKFQGKATLTVDKSSNTAHMELLSLTSEDFAVYYCTRYDGSRAMDYWGQGTTVTVSSASTKGPSVFPLAPSSKSTSGGTAALGCLVKDYFPEPVTVSWNSGALTSGVHTFPAVLQSSGLYSLSSVVTVPSSSLGTQTYICNVNHKPSNTKVDKKV[gap - human IgG1 Fc]
light: DIVLTQSPLSLAVSLGQPAIISCKASQSVSFAGTSLMHWYHQKPGQQPRLLIYRASNLEAGVPDRFSGSGSKTDFTLTISPVEAEDAATYYCQQSREYPYTFGGGTKLEIKRTVAAPSVFIFPPSDEQLKSGTASVVCLLNNFYPREAKVQWKVDNALQSGNSQESVTEQDSKDSTYSLSSTLTLSKADYEKHKVYACEVTHQGLSSPVTKSFNRGEC
In the case of B1, the “human FRα cell binding” value in series [1] is on record as “significant loss of binding”.

B2: F-LALA-VA-EXA (conjugate)
heavy: EVQLVESGGGVVQPGRSLRLSCSASGFTFSGYGLSWVRQAPGKGLEWVAMISSGGSYTYYADSVKGRFAISRDNAKNTLFLQMDSLRPEDTGVYFCARHGDDPAWFAYWGQGTPVTVSSASTKGPSVFPLAPSSKSTSGGTAALGCLVKDYFPEPVTVSWNSGALTSGVHTFPAVLQSSGLYSLSSVVTVPSSSLGTQTYICNVNHKPSNTKVDKKV[gap - human IgG1 Fc with changes]
light: DIQLTQSPSSLSASVGDRVTITCSVSSSISSNNLHWYQQKPGKAPKPWIYGTSNLASGVPSRFSGSGSGTDYTFTISSLQPEDIATYYCQQWSSYPYMYTFGQGTKVEIKRTVAAPSVFIFPPSDEQLKSGTASVVCLLNNFYPREAKVQWKVDNALQSGNSQESVTEQDSKDSTYSLSSTLTLSKADYEKHKVYACEVTHQGLSSPVTKSFNRGEC
modifications: N-methyl
Turning to B2, the “cynomolgus recombinant FRα binding (ELISA)” value in series [2] is recorded as “binds equally”. In series [3], the “rat recombinant FRα binding (ELISA)” value is given as “does not bind”. In series [4], the “inflammatory cytokine levels in broncho-alveolar supernatants compared to untreated group” value was “no significant increase in cytokine levels”; the “leucocyte inflammatory infiltration (IHC CD45) compared to untreated group” value is “no significant increase”; the “lymphocyte counts in broncho-alveolar supernatants compared to untreated control group” value is “significant increase in lymphocyte counts”; the “macrophages, neutrophils and eosinophils counts in broncho-alveolar supernatants compared to untreated control group” value was “no statistically significant increase”. Also, in series [4] (ip, 10 mg/kg), the “leucocyte inflammatory infiltration (IHC CD45) compared to bleomycin-conditioned control group” value is given as “no significant increase”. In series [5], the “dose dependent adverse systemic or local effects” value was “did not cause any dose dependent adverse systemic or local effects”; the “weight of the thymus and spleen at final necropsy compared to the control group” value is “slight decrease in the weight of the thymus and spleen”.
